The text below walks through data of patent US10494384B2, “Urea peptoid boric acid compound, pharmaceutical composition thereof, preparation method therefor, and uses thereof” (Peking University, priority 2015, dated 2019).

Amino acid sequences for entries named in this document (tags omitted). A change or cut given only in a name is not applied to a line headed by its entry.
UniProt P18421: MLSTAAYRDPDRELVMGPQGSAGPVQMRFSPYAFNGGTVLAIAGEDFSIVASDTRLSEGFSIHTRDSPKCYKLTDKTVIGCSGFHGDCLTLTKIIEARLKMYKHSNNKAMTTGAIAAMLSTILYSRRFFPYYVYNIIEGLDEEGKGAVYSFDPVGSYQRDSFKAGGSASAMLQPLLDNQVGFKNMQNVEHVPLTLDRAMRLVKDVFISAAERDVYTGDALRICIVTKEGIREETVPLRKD
UniProt P28075: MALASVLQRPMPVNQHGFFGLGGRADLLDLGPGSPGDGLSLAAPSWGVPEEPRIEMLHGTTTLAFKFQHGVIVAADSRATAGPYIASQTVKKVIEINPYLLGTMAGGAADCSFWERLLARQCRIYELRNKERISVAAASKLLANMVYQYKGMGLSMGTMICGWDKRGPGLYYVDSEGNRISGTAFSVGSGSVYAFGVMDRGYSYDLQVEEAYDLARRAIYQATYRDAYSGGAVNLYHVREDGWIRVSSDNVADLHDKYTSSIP

In test [1] the test system is MGC803 stomach cancer cells. The experiment in a line: anti-tumor activity in vitro (IC50), MTT. Type of test: cell-based. Conditions: Homo sapiens, MGC-803, 72 h. As to the method: (§1) Cancer cells were cultured in vitro. When cell growth reached logarithmic phase, the cells were collected and centrifuged at 1000 rpm for 5 min, before the supernate was removed and the cells were suspended in a moderate amount of medium, and then the concentration of cell was adjusted to 3.5×10^4/mL. The cell suspension was added into a 96-well plate with 100 μL per well and cultured in a cell incubator (37° C., 5% CO2) for 24 h. Then test drugs of different end concentrations were added, and the negative control group was added DMSO (end concentration was 0.5%), while each group afforded three repetitive holes. After cultivation for another 72 h in the cell incubator, a solution containing 5 mg/ml MTT (20 μL) was added into each well and the 96-well plate was placed at 37° C. for 3 h. To each well was added 150 μL DMSO, after oscillation in a shaking table for 5 min, the optical density (OD) values at 492 nm/620 nm were measured. IC50 values were calculated by Prism Graphpad statistical software.

Another test has as its system HepG2 liver cancer cells. The experiment in a line: anti-tumor activity in vitro (IC50), MTT. The format is cell-based. The note with it: Homo sapiens, 72 h. As to the method: as §1
Test [2] deals with T1, 20S proteasome extracted from rat liver (CT-L) (Rattus norvegicus, UniProt P18421+P28075).
T1 construct: 20S proteasome extracted from rat liver; from tissue; host or cells: rat liver
The experiment in a line: inhibition of 20S proteasome, CT-L activity (fluorescent peptide). The format is biochemical. As to the method:
1 μg of 20S proteasome extracted from rat liver was incubated with a 100 μL solution containing various concentrations of the present compounds, 50 μM fluorescent peptides and 20 mM Tris-HCl at 37° C. for 1 h, respectively. […] 0.1% DMSO was used as a solvent control. Compared with the fluorescence of solvent control, an inhibition rate or IC50 value was calculated.

The subject of the next test is MDA-MB-231. The experiment in a line: anti-tumor activity in vitro (IC50), MTT. Conditions: Homo sapiens, 72 h. Type of test: cell-based. As to the method:
as §1

A further test relates to SW1990. The test is described as follows: anti-tumor activity in vitro (IC50), MTT. Type of test: cell-based. Conditions: Homo sapiens, 72 h. On the procedure:
as §1

The next test concerns A549. The experiment in a line: anti-tumor activity in vitro (IC50), MTT. The format is cell-based. Conditions: Homo sapiens, 72 h. As to the method:
as §1

The next test concerns BEL7404. The test is described as follows: anti-tumor activity in vitro (IC50), MTT. Conditions: Homo sapiens, BEL-7404, 72 h. Type of test: cell-based. As to the method: as §1
The subject of a further test is MKN45. The experiment in a line: anti-tumor activity in vitro (IC50), MTT. The format is cell-based. Conditions: Homo sapiens, MKN-45, 72 h. On the procedure: as §1
Another test has as its system HCT116. The test is described as follows: anti-tumor activity in vitro (IC50), MTT. Type of test: cell-based. The note with it: Homo sapiens, HCT-116, 72 h. On the procedure: as §1
The test system of another test is SKOV3. The experiment in a line: anti-tumor activity in vitro (IC50), MTT. The format is cell-based. The note with it: Homo sapiens, SK-OV-3, 72 h. As to the method: as §1
The subject of the next test is 95D. The test is described as follows: anti-tumor activity in vitro (IC50), MTT. Conditions: Homo sapiens, 72 h. Type of test: cell-based. As to the method:
as §1

pIC50: −log10 of the molar value.

What is called IC50 is the concentration that inhibits the measured activity by half. Read a low IC50 as greater potency in that assay. As for `CC(C)C[C@H](NC(=O)[C@H](Cc1ccccc1)NC(=O)NCc1ccco1)B(O)O` [Example 33, N-L-phenylalanyl-L-leucine borate-N′-furan-2-ylmethylamine-urea], the IC50 in [1] amounted to 0.00532 µM; in the test on HepG2 liver cancer cells, 0.0456 µM.
For orientation: pIC50 means the IC50 on a negative log10 scale, so that one unit is a factor of ten. Compound `CC(C)C[C@H](NC(=O)[C@H](Cc1ccccc1)NC(=O)N[C@H](C)c1ccccc1)B(O)O` [Example 26, N-L-phenylalanyl-L-leucine borate-N′—(R)-2-methyl-benzylamine-urea] had a pIC50 in test [2] of 8.00. For the same compound, the values for the IC50 (in test [1]; with HepG2 liver cancer cells) were 0.00408 µM and 0.037 µM, respectively.
Turning to `CC(C)C[C@H](NC(=O)[C@H](Cc1ccccc1)NC(=O)c1cnccn1)B(O)O` [positive control, bortezomib, reference compound], the pIC50 with MDA-MB-231 is 7.78; in the test with SW1990, 7.10; with A549, 5.67; with BEL7404, 7.60; in the test with MKN45, 8.15; in the test on HCT116, 8.85. In addition, the pIC50 in the test on SKOV3 is 8.79; in the test on 95D, 7.42.
Regarding `CC(C)C[C@H](NC(=O)[C@H](Cc1ccccc1)NC(=O)N(C)Cc1ccccc1)B(O)O` [Example 29, N-L-phenylalanyl-L-leucine borate-N′—(N-methyl-benzylamine)-urea], the IC50 was 0.0052 µM in test [1] and 0.0305 µM with HepG2 liver cancer cells.
Regarding `CC(C)C[C@H](NC(=O)[C@H](Cc1ccccc1)NC(=O)NCc1cccc([N+](=O)[O-])c1)B(O)O` [Example 36, N-L-phenylalanyl-L-leucine borate-N′-3-nitro-benzylamine-urea], the figures for the IC50 (in [1]; in the test with HepG2 liver cancer cells) were 0.00632 µM and 0.0438 µM, respectively.
`CC(C)C[C@H](NC(=O)[C@H](Cc1ccccc1)NC(=O)N[C@@H](C)c1ccccc1)B(O)O` [Example 27, N-L-phenylalanyl-L-leucine borate-N′—(S)-2-methyl-benzylamine-urea]: the IC50 amounted to 0.198 µM in test [1] and 1.07 µM with HepG2 liver cancer cells.
`CC(C)C[C@H](NC(=O)[C@H](Cc1ccccc1)NC(=O)NCCc1ccccc1)B(O)O` [Example 25, N-L-phenylalanyl-L-leucine borate-N′-phenylethylamine-urea]: the half-inhibitory concentration (IC50) with HepG2 liver cancer cells worked out at 0.0709 µM.
